Where “and” joins values, the source holds several entries; their conditions need not be identical. Identical values can stand only once. Only a part is listed here, and it is no random draw. Records with an inconclusive call do not appear. Calls of active or inactive are those of the source. Unless noted, calls follow the shape of the dose curve; as a rule, active = well fitted curve in the direction sought with a large enough effect in the repeat runs; inconclusive = weak or mixed curves; inactive = no such curve, though single readings can be large; an effect the other way counts as inactive or inconclusive.
Experiments:
[1] = A CellTox Green Cytotoxicity Assay to monitor cytotoxicity in HEK293 cells - 16 hour (AID 1224888); settings: CellTox Green fluorescence, hits give high values; also: nearly all actives have a fitted effect of over 35% in size
Procedure, shortened: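 Real-time, in one plate: 600 HEK293 cells/well with dead-cell DNA dye, pinned compound after 5 h, 37 C incubation over 40 h; viable cells give no appreciable fluorescence.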

Chains of the proteins cited; added tags and fusions are not shown.
UniProt P16473, whole entry: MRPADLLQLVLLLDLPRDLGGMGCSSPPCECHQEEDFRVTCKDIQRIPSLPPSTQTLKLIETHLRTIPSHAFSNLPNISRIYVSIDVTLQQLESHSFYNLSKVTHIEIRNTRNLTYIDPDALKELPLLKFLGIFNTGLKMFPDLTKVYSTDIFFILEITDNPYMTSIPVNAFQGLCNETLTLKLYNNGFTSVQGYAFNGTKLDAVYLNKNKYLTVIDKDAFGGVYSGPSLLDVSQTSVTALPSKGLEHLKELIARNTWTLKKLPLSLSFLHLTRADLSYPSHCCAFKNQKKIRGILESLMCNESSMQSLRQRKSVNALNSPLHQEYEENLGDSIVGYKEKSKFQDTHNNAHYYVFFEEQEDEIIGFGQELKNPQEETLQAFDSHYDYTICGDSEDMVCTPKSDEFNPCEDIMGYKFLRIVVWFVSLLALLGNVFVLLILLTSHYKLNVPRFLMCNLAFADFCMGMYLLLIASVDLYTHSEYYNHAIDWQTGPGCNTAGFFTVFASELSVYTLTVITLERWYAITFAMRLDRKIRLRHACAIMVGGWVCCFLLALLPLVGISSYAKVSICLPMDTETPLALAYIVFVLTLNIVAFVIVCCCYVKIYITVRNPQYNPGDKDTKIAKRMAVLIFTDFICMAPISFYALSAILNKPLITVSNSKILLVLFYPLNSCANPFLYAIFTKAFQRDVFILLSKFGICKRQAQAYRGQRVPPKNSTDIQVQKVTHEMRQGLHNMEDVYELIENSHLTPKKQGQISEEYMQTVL
UniProt Q92731, whole entry: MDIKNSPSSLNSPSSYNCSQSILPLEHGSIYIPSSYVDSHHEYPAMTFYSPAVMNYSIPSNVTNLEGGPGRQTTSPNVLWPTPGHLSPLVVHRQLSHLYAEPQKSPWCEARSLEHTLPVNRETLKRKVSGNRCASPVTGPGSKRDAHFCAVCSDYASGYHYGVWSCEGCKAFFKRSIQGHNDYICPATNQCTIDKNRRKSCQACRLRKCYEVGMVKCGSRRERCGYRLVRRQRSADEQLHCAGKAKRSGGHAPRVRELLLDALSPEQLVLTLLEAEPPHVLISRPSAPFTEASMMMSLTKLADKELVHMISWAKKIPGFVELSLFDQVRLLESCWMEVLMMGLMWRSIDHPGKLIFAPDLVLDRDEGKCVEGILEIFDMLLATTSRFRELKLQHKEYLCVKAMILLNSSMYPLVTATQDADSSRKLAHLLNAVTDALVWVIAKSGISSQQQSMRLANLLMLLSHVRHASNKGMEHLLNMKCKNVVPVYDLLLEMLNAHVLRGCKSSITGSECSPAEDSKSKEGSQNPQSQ
UniProt P10275, whole entry: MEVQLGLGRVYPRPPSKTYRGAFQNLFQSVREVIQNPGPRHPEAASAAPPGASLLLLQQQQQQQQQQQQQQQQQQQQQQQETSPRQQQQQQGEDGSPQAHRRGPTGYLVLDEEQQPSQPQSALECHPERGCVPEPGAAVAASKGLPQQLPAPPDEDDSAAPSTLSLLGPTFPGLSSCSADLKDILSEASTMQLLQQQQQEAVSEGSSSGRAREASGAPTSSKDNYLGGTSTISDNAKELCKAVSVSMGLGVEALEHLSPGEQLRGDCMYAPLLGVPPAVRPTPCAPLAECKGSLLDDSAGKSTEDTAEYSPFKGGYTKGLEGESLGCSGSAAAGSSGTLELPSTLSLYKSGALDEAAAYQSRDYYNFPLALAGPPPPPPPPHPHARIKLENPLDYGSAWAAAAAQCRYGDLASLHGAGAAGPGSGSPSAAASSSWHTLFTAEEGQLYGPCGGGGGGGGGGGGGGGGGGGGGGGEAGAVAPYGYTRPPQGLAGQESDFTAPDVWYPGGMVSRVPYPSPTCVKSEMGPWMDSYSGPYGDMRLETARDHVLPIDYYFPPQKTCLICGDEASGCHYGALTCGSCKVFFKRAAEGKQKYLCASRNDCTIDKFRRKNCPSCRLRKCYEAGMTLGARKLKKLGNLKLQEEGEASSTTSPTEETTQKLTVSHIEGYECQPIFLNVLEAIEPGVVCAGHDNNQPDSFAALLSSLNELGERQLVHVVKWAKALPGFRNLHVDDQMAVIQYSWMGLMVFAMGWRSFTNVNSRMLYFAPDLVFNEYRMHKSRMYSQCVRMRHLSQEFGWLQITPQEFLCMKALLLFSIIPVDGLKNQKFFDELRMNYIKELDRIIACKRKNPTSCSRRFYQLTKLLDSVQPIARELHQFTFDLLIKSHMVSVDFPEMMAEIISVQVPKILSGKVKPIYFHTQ
UniProt P03372, whole entry: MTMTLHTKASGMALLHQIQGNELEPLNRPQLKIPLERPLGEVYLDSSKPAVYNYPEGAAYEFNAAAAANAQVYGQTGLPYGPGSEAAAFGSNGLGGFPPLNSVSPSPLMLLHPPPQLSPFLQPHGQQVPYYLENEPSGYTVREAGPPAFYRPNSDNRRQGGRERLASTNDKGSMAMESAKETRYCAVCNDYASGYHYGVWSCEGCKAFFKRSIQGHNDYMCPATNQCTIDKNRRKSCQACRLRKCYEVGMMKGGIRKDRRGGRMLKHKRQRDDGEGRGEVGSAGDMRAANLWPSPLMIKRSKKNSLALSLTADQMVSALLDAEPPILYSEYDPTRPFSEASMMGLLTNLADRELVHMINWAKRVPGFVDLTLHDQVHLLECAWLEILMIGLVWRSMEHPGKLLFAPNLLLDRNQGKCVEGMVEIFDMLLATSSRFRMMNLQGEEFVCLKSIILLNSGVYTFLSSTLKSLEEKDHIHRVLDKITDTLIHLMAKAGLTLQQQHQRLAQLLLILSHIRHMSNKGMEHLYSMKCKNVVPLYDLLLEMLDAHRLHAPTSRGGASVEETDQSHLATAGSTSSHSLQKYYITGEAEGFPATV

[2] = qHTS RealTime-Glo MT Cell Viability Assay in HepG2 cells - 0 hour (AID 1224889); settings: RealTime-Glo luminescence; also: nearly all actives have a fitted effect of over 50% in size
Procedure, shortened: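 Real-time, nonlytic viability: 600 HepG2 cells/well mixed with NanoLuc enzyme plus prosubstrate; 5 h settle, compound (DMSO) added by pintool; luminescence monitored over 40 h at 37 C.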

[3] = A CellTox Green Cytotoxicity Assay to monitor cytotoxicity in HepG2 cells - 8 hour (AID 1224890); settings: CellTox Green fluorescence; also: nearly all actives have a fitted effect of over 45% in size
Procedure, shortened: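 Cytotoxicity was tracked as dead-cell DNA fluorescence in HepG2 cells treated with test compounds at 37 C; each time-point value comes from one kinetic series spanning 0, 8, 16, 24, 32 and 40 h.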

[4] = qHTS assay to identify small molecule antagonists of the estrogen receptor alpha (ER-alpha) signaling pathway using the BG1 cell line in the presence of 0.1 nM 17-beta-estradiol - cell viability counter screen (AID 1259241); settings: VM7Luc4E2 (BG1) viability, CellTiter-Fluor protease, 22 h, 0.1 nM estradiol agonist added; also: nearly all actives have a fitted effect of over 40% in size
Procedure, shortened: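 VM7Luc4E2 cells (endogenous ER-alpha, 4×ERE-luciferase), hormone-starved 5 days in charcoal-stripped FBS, were treated with compounds plus 0.1 nM 17beta-estradiol for 22 hr at 37C; viability read in same wells as CellTiter-Fluor live-cell protease fluorescence.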

[5] = qHTS assay to identify small molecule HDAC inhibitors (AID 1259364); settings: HCT-116 HDAC-Glo I/II luminescence, 2 h;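 also: wild-type HCT-116 cells with endogenous class I/II HDAC activity; top concentration of the series differs between compounds; nearly all actives have a fitted effect of over 45% in size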
Procedure, shortened: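 HCT-116 wt cells, 1,500/well, overnight attach. Compounds (DMSO) 2 h, 37 °C. HDAC-Glo I/II, 30 min RT. Luminescence.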

[6] = qHTS assay to identify small molecule HDAC inhibitors - cell viability counter screen (AID 1259365); settings: HCT-116 viability, CellTiter-Glo ATP luminescence, 2 h; also: nearly all actives have a fitted effect of over 50% in size
Procedure, shortened: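 Wild-type HCT-116 cells were seeded at 1,500 per well, incubated overnight at 37 C, then exposed to compounds in DMSO for 2hr. Viability was read by CellTiter-Glo luminescence after 30min at room temperature.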

[7] = qHTS assay to identify small molecule agonists of the sonic hedgehog signaling (Shh) pathway (AID 1259368; calls by dose curve; also: nearly all actives have a fitted effect of over 15% in size); settings: NIH/3T3 Gli1-Luc reporter, luciferase, 24 h, hits give high values
Procedure, shortened: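 Following a 24 hr incubation with DMSO-dissolved compounds at 37 C, 5% CO2, Gli1-Luc NIH/3T3-derived cells received luciferase reagent for 30 min at room temperature prior to luminescence measurement.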

[8] = qHTS assay to identify small molecule antagonists of the sonic hedgehog signaling (Shh) pathway (AID 1259369; calls by dose curve; also: nearly all actives have a fitted effect of over 45% in size; also: potency is read from the fitted curve at half-maximal effect); settings: NIH/3T3 Gli1-Luc reporter, Shh antagonist, luminescence 24 h; series mostly up to 92.4 µM
Procedure, shortened: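 Read-out is luminescence from a firefly luciferase gene controlled by the Gli1 response element, in 3T3Gli1-Luc cells pre-incubated 4hr then exposed to compounds and conditioned medium for 24hr.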

[9] = qHTS assay to identify small molecule agonists or antagonists of the thyroid stimulating hormone receptor (TSHR) signaling pathway - wild type cell line counter screen (AID 1259384; calls by dose curve); settings: HEK293 wild type, cAMP HTRF counter-screen, hits give high values
Procedure, shortened: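 Counter screen in untransfected Hek293: compounds (15-point titration, triplicate) plus phosphodiesterase inhibitor Ro20-1724 added after 18 h plating; 30 min RT. Intracellular cAMP via competitive d2/cryptate immunoassay, 1 h incubation.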

[10] = molecular target: Thyrotropin receptor (Homo sapiens) (UniProt P16473); test: qHTS assay to identify small molecule antagonists of the thyroid stimulating hormone receptor (TSHR) signaling pathway (AID 1259385; calls by dose curve; also: nearly all actives have a fitted effect of over 20% in size); settings: TSHR-HEK293 cAMP HTRF, TSH-stimulated antagonist mode
[11] = qHTS assay to identify small molecule antagonists of the androgen receptor (AR) signaling pathway using the MDA cell line in the presence of 0.5 nM R1881 - cell viability counter screen (AID 1259242); settings: MDA-kb2 viability, CellTiter-Fluor protease fluorescence, 16 h; at 92.4 µM (top of the series); also: nearly all actives have a fitted effect of over 45% in size
Procedure, shortened: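 Cells seeded at 3,000/well and allowed 5 hr at 37C, 0% CO2 before compound transfer and R1881 (0.5 nM final) addition; 16 hr later, live-cell protease fluorescence indicated cytotoxicity.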

[12] = qHTS assay to identify small molecule agonists of the sonic hedgehog signaling (Shh) pathway - cell viability counter screen (AID 1259366); settings: NIH/3T3 Gli1-Luc viability, CellTiter-Fluor, 24 h; at 92.4 µM (top of the series); also: nearly all actives have a fitted effect of over 50% in size
Procedure, shortened: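 NIH/3T3-derived 3T3 Gli1-Luc cells (stable Gli1-responsive firefly luciferase reporter) were seeded, rested 4 hr at 37 C/5% CO2, then exposed to compounds in DMSO for 24 hr; viability was read by CellTiter-Fluor fluorescence in the same wells.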

[13] = qHTS assay to identify small molecule antagonists of the sonic hedgehog signaling (Shh) pathway - cell viability counter screen (AID 1259367); settings: NIH/3T3 Gli1-Luc viability, CellTiter-Fluor, 24 h; at 92.4 µM (top of the series); also: nearly all actives have a fitted effect of over 55% in size
Procedure, shortened: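 Viability was read by CellTiter-Fluor fluorescence in the same wells, reagent added 23 hr into compound treatment and incubated 1 hr at 37C. The 3T3 Gli1-Luc reporter cells (2,000/well) received conditioned medium after compound and ran 24 hr.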

[14] = qHTS assay to identify small molecule agonists of the androgen receptor (AR) signaling pathway in the presence of an antagonist - cell viability counter screen (AID 1259379); settings: MDA-kb2 viability, CellTiter-Fluor, 16 h; at 92.4 µM (top of the series);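 also: MDA-kb2 human breast cancer cells carrying an MMTV luciferase reporter; nearly all actives have a fitted effect of over 25% in size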
Procedure, shortened: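 Each compound was tested at 15 concentrations on MDA-kb2 cells in the presence of 3.0uM nilutamide. Viability was measured by CellTiter-Fluor fluorescence after a 16 hr incubation at 37C in a CO2-free atmosphere.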

[15] = qHTS assay to identify small molecule agonists of the estrogen receptor beta (ER-beta) signaling pathway - cell viability counter screen (AID 1259380); settings: ER-beta-bla HEK293T viability, CellTiter-Glo luminescence, 16 h; at 92.4 µM (top of the series); also: nearly all actives have a fitted effect of over 30% in size
Procedure, shortened: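 Compounds dissolved in DMSO were pin-transferred onto ER-beta-UAS-bla HEK293T cells that had settled 6 hr, and exposure ran 16 hr at 37C. Following the reporter read, CellTiter-Glo luminescence after 30 min at room temperature indicated cytotoxicity.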

[16] = qHTS assay to identify small molecule antagonists of the estrogen receptor beta (ER-beta) signaling pathway - cell viability counter screen (AID 1259382); settings: ER-beta-UAS-bla HEK293T viability, CellTiter-Glo luminescence, 16 h; at 92.4 µM (top of the series);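 also: HEK293T cells carrying ER-beta-UAS-bla reporter stimulated with estradiol; nearly all actives have a fitted effect of over 55% in size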
Procedure, shortened: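 CellTiter-Glo ATP luminescence measured after the LiveBLAzer read in the same wells; ER-beta-UAS-bla HEK293T cells, 16 hr compound treatment with 1nM 17-beta-estradiol agonist at 37C, 5% CO2.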

[17] = molecular target: Estrogen receptor beta (Homo sapiens) (UniProt Q92731); test: qHTS assay to identify small molecule agonists of the estrogen receptor beta (ER-beta) signaling pathway (AID 1259377; active = well fitted activation curve with a large enough effect in the signal ratio in the repeat runs, not every such curve was filed as active; the % refers to the signal ratio); settings: ER-beta-UAS-bla HEK293T, beta-lactamase FRET ratio, 16 h; at 92.4 µM (top of the series)
[18] = molecular target: Estrogen receptor beta (Homo sapiens) (UniProt Q92731); test: qHTS assay to identify small molecule antagonists of the estrogen receptor beta (ER-beta) signaling pathway (AID 1259378; active = well fitted inhibition curve with a large enough effect in the signal ratio in the repeat runs, not every such curve was filed as active; the % refers to the signal ratio); settings: ER-beta-UAS-bla HEK293T, beta-lactamase FRET ratio, 16 h; at 92.4 µM (top of the series)
Procedure, shortened: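 Antagonist mode: compounds added to beta-lactamase reporter HEK293T ER-beta-UAS cells stimulated with E2 (1nM final), 16 hr at 37C. LiveBLAzer B/G FRET substrate, 2 hours room temperature, fluorescence read-out.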

[19] = molecular target: Androgen receptor (Homo sapiens) (UniProt P10275); test: qHTS assay to identify small molecule agonists of the androgen receptor (AR) signaling pathway in the presence of an antagonist (AID 1259381; calls by dose curve; also: nearly all actives have a fitted effect of over 15% in size); settings: MDA-kb2 MMTV-luciferase, AR agonist + nilutamide, 16 h; at 92.4 µM (top of the series)
[20] = molecular target: Estrogen receptor (Homo sapiens) (UniProt P03372); test: qHTS assay to identify small molecule agonists of the estrogen receptor alpha (ER-alpha) signaling pathway in the presence of an antagonist (AID 1259383; calls by dose curve; also: top concentration of the series differs between compounds; nearly all actives have a fitted effect of over 15% in size); settings: VM7Luc4E2 cells, ERE-luciferase, +ICI-182,780, 22 h; at 92.4 µM (top of the series)
% is scaled to controls: 0 for no effect and ±100 for the full control effect.

SMILES: CN(CCCl)CCCl
- activity change ([1]; at 35.3 µM (top of the series)): inactive: 0.842%
- activity change ([1]; at 76.8 µM (top of the series)): inactive: -5.17%
- activity change, negative = cytotoxicity ([2]; at 35.3 µM (top of the series)): inactive: -1.83%
- activity change, negative = cytotoxicity ([2]; at 76.8 µM (top of the series)): inactive: -2.81%
- cytotoxicity increase ([3]; at 35.3 µM (top of the series)): inactive: -0.857%
- cytotoxicity increase ([3]; at 76.8 µM (top of the series)): inactive: -8.77%
- activity change, negative = cytotoxicity ([4]; at 42.5 µM (top of the series)): inactive: -1.72%
- activity change, negative = cytotoxicity ([4]; at 92.4 µM (top of the series)): inactive: -33.9%
- activity change, negative = inhibition ([5]; at 42.5 µM (top of the series)): inactive: 3.52%
- activity change, negative = inhibition ([5]; at 92.4 µM (top of the series)): inactive: 2.05%
- activity change, negative = cytotoxicity ([6]; at 42.5 µM (top of the series)): inactive: 14.1%
- activity change, negative = cytotoxicity ([6]; at 92.4 µM (top of the series)): inactive: 11%
- activity change ([7]; at 42.5 µM (top of the series)): inactive: 0.995%
- activity change ([7]; at 92.4 µM (top of the series)): inactive: -20.3%
- Potency [8]: active: 5.44 µM and active: 15 µM
- cAMP activity change ([9]; at 42.5 µM (top of the series)): inactive: 0.606%
- cAMP activity change ([9]; at 92.4 µM (top of the series)): inactive: 1.83%
- activity change, negative = inhibition ([10]; at 42.5 µM (top of the series)): inactive: 0.469%
- activity change, negative = inhibition ([10]; at 92.4 µM (top of the series)): inactive: -0.47%

SMILES: CCC(=O)N(c1ccccc1)C1(COC)CCN(CCn2nnn(CC)c2=O)CC1
- activity change ([1]; at 76.8 µM (top of the series)): inactive: -0.254%
- activity change, negative = cytotoxicity ([2]; at 76.8 µM (top of the series)): inactive: -3.67%
- cytotoxicity increase ([3]; at 76.8 µM (top of the series)): inactive: -4.79%
- activity change, negative = cytotoxicity ([4]; at 92.4 µM (top of the series)): inactive: 9.98%
- viability change, negative = cytotoxic [11]: inactive: 0.757%
- activity change, negative = inhibition ([5]; at 92.4 µM (top of the series)): inactive: -3.12%
- activity change, negative = cytotoxicity ([6]; at 92.4 µM (top of the series)): inactive: -1.26%
- viability change, negative = cytotoxic [12]: inactive: -2.7%
- viability change, negative = cytotoxic [13]: inactive: -7.67%
- activity change ([7]; at 92.4 µM (top of the series)): inactive: 0.0987%
- Potency [8]: inactive
- activity change, negative = cytotoxicity [14]: inactive: 0.0658%
- activity change, negative = cytotoxicity [15]: inactive: -12.6%
- activity change, negative = cytotoxicity [16]: inactive: -4.35%
- cAMP activity change ([9]; at 92.4 µM (top of the series)): inactive: -6.87%
- activity change, negative = inhibition ([10]; at 92.4 µM (top of the series)): inactive: 5.69%

SMILES: O=[N+]([O-])C(Cl)(Cl)Cl
- activity change ([1]; at 76.8 µM (top of the series)): inactive: 19%
- activity change, negative = cytotoxicity ([2]; at 76.8 µM (top of the series)): inactive: 3.53%
- cytotoxicity increase ([3]; at 76.8 µM (top of the series)): inactive: -12.7%
- activity change, negative = cytotoxicity ([4]; at 92.4 µM (top of the series)): inactive: 4.65%
- viability change, negative = cytotoxic [11]: inactive: 2.29%
- activity change, negative = inhibition ([5]; at 92.4 µM (top of the series)): inactive: -3.8%
- activity change, negative = cytotoxicity ([6]; at 92.4 µM (top of the series)): inactive: 7.81%
- viability change, negative = cytotoxic [13]: inactive: 2.74%
- activity change ([7]; at 92.4 µM (top of the series)): inactive: 1.21%
- Potency [8]: active: 172 nM
- activation [17]: inactive: 1.74%
- activity, negative = inhibition [18]: inactive: 14.4%
- activity change, negative = cytotoxicity [14]: inactive: 0.523%
- activity change, negative = cytotoxicity [15]: inactive: 9.26%
- activity change, negative = cytotoxicity [16]: inactive: -0.161%
- cAMP activity change ([9]; at 92.4 µM (top of the series)): inactive: -3.73%
- activity change, negative = inhibition ([10]; at 92.4 µM (top of the series)): inactive: -0.763%

SMILES: CCC(=O)N(c1ccccc1)C1(COC)CCN(CCc2cccs2)CC1
- activity change ([1]; at 76.8 µM (top of the series)): inactive: 4.52%
- activity change, negative = cytotoxicity ([2]; at 76.8 µM (top of the series)): inactive: -1.02%
- cytotoxicity increase ([3]; at 76.8 µM (top of the series)): inactive: 0.633%
- activity change, negative = cytotoxicity ([4]; at 92.4 µM (top of the series)): inactive: -3.78%
- activity change, negative = inhibition ([5]; at 92.4 µM (top of the series)): inactive: 10.4%
- activity change, negative = cytotoxicity ([6]; at 92.4 µM (top of the series)): inactive: -5.19%
- viability change, negative = cytotoxic [13]: inactive: -11.1%
- activity change ([7]; at 92.4 µM (top of the series)): inactive: -1.06%
- activation [17]: inactive: -1.69%
- activation [19]: inactive: -7.97%
- activity change, negative = cytotoxicity [16]: inactive: -19.9%
- activation [20]: inactive: -1.26%
- cAMP activity change ([9]; at 92.4 µM (top of the series)): inactive: -8.52%
- activity change, negative = inhibition ([10]; at 92.4 µM (top of the series)): inactive: -2.76%
